Assay results as given in patent US9266922B2, “Antigen peptide and uses thereof” (priority 2011, dated 2016).

Assays:
[1] = target: T1, HLA A*0201 on CEM.T2 cell line (Homo sapiens, UniProt P04439, D140Y/D185E/D98H/E176V/E277Q/G131W/G231S/I119V/I121R/I166T/I218V/L300P/L318F/N151K/N90K/P208A/P217A/Q86G/Q94H/R138H/R169H/T345S); assay: Cellular binding assay, HLA stabilization on CEM.T2 cells; type: cell-based; conditions: flow cytometry, FIG. 3A and 3B
T1 construct: This cell line expresses HLA A*0201 but is deficient for TAP transporter; endogenous in cells; host or cells: CEM.T2 (T2) cell line
Method: The CEM.T2 cell line (T2) is defective in the processing of proteins for presentation by MHC class 1 molecules. This cell line expresses HLA A*0201 but is deficient for TAP transporter. T2 is classically used to assess the Peptide/HLA-A*0201 Complex Stability[H. W. Nijman et al., 1993]
For HLA-A2*0201 stabilization, T2 cells (2×10^5/well) were incubated in serum-free RPMI (Gibco®-France) with 100 μM of selected peptide, at 37° C. for 4 h. Cells were washed two times with PBS supplemented with 1% BSA and stained with fluorescein isothiocyanate-conjugated anti HLA-A2 (Clone BB7.2) (BD Bioscience Pharmingen-France-) at 4° C. for 45 min. After 3 washes, cells were fixed in PBS supplemented with 2% paraformaldehyde and analyzed by FACS (FACScan, BD Bioscience). The percentage of peptide binding was calculated as follows: % Binding={(MFI peptide sample−MFI Neg control)/(MFI Pos control−MFI Neg control)}×100
The peptide […] from Hepatitis B Virus [I. A. Doytchinova et al., 2004] was used as positive control peptide. Negative control was done without peptide.

HLA-A*0201 = HLA-A*0201 (Homo sapiens, UniProt P04439, D140Y/D185E/D98H/E176V/E277Q/G131W/G231S/I119V/I121R/I166T/I218V/L300P/L318F/N151K/N90K/P208A/P217A/Q86G/Q94H/R138H/R169H/T345S); assay: F-Score ranking (iTOPIA and CEM T2); conditions: overall ranking by iTOPIA and CEM T2 assays, nectin4 and reference peptides together
Text: These peptides present binding characteristics close to the well characterized GnTV, NY-ESO-1 and tyrosinase peptides used in clinics.

Sequence | HLA-A*0201 class I level on T2 cells [1] | RANK F-Score (HLA-A*0201)
FLPSDFFPSV [HBV peptide, peptide from Hepatitis B Virus used as positive control peptide in the T2 assay, reference compound] | stabilized as well as peptide 145 | 
SLLMWITQV [Peptide 513, reference compound] |  | 2
